Experimental findings from ChEMBL document CHEMBL1144939, “Modeling the adenosine receptors: comparison of the binding domains of A2A agonists and antagonists” (J Med Chem, 2003) are described below.

Amino acid sequences for entries named in this document (tags omitted).
UniProt P29274, whole entry T88D: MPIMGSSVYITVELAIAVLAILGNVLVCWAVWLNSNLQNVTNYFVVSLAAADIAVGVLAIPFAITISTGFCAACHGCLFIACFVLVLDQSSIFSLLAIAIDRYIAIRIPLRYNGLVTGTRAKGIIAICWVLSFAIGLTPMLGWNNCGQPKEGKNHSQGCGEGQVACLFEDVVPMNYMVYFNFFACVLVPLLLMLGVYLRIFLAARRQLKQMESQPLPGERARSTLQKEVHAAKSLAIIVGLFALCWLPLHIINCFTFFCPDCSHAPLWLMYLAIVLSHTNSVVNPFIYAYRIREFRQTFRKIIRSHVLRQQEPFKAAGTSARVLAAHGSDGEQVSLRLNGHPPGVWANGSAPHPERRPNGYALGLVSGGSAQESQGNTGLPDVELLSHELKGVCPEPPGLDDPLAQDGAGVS
UniProt P29274, whole entry T88E: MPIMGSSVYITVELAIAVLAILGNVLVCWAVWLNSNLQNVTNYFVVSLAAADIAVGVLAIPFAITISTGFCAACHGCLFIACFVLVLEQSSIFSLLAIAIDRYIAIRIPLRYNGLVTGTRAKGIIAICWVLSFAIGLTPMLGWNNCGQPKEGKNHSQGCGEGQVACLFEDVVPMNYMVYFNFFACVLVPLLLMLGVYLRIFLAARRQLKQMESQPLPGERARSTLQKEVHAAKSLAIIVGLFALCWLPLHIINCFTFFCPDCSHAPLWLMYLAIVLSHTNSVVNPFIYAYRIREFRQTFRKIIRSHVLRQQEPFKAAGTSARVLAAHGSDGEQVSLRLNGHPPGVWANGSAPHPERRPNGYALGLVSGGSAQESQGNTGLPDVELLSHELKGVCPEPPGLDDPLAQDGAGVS
UniProt P29274, whole entry H278D: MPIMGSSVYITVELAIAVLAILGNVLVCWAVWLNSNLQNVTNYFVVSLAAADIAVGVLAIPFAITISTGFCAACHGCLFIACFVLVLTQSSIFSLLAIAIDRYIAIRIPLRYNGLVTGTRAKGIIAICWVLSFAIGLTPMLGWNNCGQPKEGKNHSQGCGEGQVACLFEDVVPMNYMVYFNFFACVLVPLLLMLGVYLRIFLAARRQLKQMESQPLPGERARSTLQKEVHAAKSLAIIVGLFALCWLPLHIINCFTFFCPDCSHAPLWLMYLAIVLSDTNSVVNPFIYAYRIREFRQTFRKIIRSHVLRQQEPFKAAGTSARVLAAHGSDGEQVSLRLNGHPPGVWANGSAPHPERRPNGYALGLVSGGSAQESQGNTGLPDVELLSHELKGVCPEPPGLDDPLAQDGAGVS
UniProt P29274, whole entry H278E: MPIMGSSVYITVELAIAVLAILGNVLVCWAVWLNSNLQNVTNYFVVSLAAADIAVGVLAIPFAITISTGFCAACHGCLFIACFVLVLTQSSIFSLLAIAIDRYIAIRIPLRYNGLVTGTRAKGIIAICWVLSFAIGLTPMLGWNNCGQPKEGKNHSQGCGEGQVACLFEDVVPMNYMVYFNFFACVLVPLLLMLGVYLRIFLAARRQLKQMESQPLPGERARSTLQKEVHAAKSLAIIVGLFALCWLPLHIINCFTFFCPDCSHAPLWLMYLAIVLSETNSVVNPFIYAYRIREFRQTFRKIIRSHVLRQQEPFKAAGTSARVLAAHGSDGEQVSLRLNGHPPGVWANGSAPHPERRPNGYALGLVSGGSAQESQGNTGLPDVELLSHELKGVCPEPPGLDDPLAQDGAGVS
UniProt P29274, whole entry Q89D: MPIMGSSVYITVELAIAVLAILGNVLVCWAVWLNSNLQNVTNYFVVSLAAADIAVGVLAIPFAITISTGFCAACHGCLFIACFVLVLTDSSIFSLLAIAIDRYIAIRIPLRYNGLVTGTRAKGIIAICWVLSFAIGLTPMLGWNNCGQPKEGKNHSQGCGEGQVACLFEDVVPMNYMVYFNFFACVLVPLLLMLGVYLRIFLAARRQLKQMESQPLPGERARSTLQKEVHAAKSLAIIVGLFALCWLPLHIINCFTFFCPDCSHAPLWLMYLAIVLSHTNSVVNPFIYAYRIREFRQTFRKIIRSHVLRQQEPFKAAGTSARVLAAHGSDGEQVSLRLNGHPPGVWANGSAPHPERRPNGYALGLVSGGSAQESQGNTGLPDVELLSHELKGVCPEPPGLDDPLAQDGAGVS
UniProt P29274, whole entry S277E: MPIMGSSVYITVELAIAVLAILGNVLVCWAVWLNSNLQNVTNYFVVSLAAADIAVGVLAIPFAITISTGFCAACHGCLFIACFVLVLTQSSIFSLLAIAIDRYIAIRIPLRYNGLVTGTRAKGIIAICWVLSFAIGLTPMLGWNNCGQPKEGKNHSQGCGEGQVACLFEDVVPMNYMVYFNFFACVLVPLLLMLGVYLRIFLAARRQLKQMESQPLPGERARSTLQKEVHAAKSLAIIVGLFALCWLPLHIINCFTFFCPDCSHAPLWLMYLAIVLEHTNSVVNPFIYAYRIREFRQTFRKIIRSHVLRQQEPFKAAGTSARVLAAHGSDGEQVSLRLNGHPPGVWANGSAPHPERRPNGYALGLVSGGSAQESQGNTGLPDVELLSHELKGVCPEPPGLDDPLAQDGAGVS

The term Ki denotes a measure of affinity in units of concentration, obtained from inhibition or displacement. Lower therefore signals a stronger hold on the target.

Experiment [1] concerns the target Adenosine receptor A2a (Homo sapiens, UniProt P29274, T88D). The experiment in a line: Binding affinity against T88D human adenosine A2A receptor expressed in CHO cells using [3H]- ZM-241385. Format: cell-based.
Experiment [2] deals with Adenosine receptor A2a (Homo sapiens, UniProt P29274, T88E). The experiment in a line: Binding affinity against T88E human adenosine A2A receptor expressed in CHO cells using [3H]- ZM-241385. The format is cell-based.
Experiment [3] has as its target Adenosine receptor A2a (Homo sapiens, UniProt P29274, H278D). Nature of the experiment: biochemical.
Experiment [4] deals with Adenosine receptor A2a (Homo sapiens, UniProt P29274, H278E). The experiment in a line: biochemical.
In experiment [5] the target is Adenosine receptor A2a (Homo sapiens, UniProt P29274, Q89D). Nature of the experiment: biochemical.
Experiment [6] concerns the target Adenosine receptor A2a (Homo sapiens, UniProt P29274, S277E). Nature of the experiment: biochemical.
Experiment [7] has as its target Adenosine receptor A2a (Homo sapiens, UniProt P29274). Nature of the experiment: biochemical.

For `NCCNC(=O)[C@H]1O[C@@H](n2cnc3c(N)ncnc32)[C@H](O)[C@@H]1O`, the Ki at Adenosine receptor A2a [1] stood at 4.4 µM; on Adenosine receptor A2a [2] it was 57 µM; at Adenosine receptor A2a [3] it was 121 µM; on Adenosine receptor A2a [4] it was 72 µM; on Adenosine receptor A2a [5], 3.6 µM; at Adenosine receptor A2a [6] it was 41 µM. On Adenosine receptor A2a [7], this compound came in with a Ki of 0.0461 µM.
